The record followed here is PubChem BioAssay AID588493 (Sanford-Burnham Center for Chemical Genomics, 2011).

Sequences of proteins named here, by UniProt entry; tags and fusion partners are left off.
UniProt O00487, whole entry: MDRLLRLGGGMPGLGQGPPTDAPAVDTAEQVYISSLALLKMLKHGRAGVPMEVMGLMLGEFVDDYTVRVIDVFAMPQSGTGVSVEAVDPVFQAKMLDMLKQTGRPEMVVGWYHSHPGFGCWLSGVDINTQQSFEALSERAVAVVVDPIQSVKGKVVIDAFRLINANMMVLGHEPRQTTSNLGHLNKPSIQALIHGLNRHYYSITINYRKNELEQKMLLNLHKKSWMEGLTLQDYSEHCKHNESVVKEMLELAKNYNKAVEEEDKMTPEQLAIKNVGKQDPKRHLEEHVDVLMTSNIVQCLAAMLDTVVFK

Only a part is listed here, and it is no random draw. Calls of active or inactive are those of the source.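 The calls were made as follows: active = inhibition at 20 µM, scaled to each plate's controls, above about 33% (limit read from the data); inactive = the rest.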

As usually defined, the inhibition is the drop in the measured response relative to a control, in per cent.

For the experiment, the target named is 26S proteasome non-ATPase regulatory subunit 14 (Homo sapiens) (UniProt O00487). The experiment is described as follows: Rpn11 (PSMD14) deubiquitinase inhibitors, primary screen, biochemical, fluorescence polarization, uHTS (AID 588493). As to conditions: human 26S proteasome, Ub4-pepOG fluorescence polarization; at 20 µM; hits give high values; 20S core pre-blocked with epoxomicin. A general note: Polarisation of emitted light reports the rotation of a fluorescent probe.
On to `CCC(=O)N(c1ccccc1)C1(COC)CCN(CCn2nnn(CC)c2=O)CC1`, for which the inhibition was inactive: 2.5%. In the case of `CCC(=O)N(c1ccccc1)C1(COC)CCN(CCc2cccs2)CC1` it was inactive: 2.6%.
